Our source for the IC50 values is US20160158307A1, “Potent and Efficient Cytotoxic Peptides and Antibody-Drug Conjugates thereof and Their Synthesis” (priority 2014, published 2016).

What all share (assay type): cell-based, Human
One experiment relates to HCC1954. The experiment in a line: In vitro cell assay (Cell Titer Glo), HCC1954. To be noted: Table 3; payloads and related ADCs; 6 days exposure; Her2 positive. Here is the method:
(§1) In vitro cell assay is performed in a 96 well micro titer plate. Human tumor cell lines Hela, A549, MCF-7, HCC-1954 and SK-BR-3 are obtained from ATCC (American Type Culture Collection).
The cells were harvested respectively during the logarithmic growth period and counted with hemocytometer. The cell viability was over 98% by trypan blue exclusion. 90 μl of cell suspensions were added in to 96-well plates, the final cell density was reached to 3000 cells/well. […]
(§2) To each well was added 10 μL, of DMSO diluted compound (10×). For the sentinel base T0 plate, to each well was added 100 μL Cell Titer Gloand the luminescence signals with Envision reading were recorded.
(§3) […] Plates are read with Envision after adding Cell Titer Glo to each well. IC50 values were calculated using GraphPad Prism 5.

For the next experiment, the system named is SK-BR-3. The experiment can be described thus: In vitro cell assay (Cell Titer Glo), SK-BR-3. To be noted: Table 3; payloads and related ADCs; 6 days exposure; Her2 positive. Here is the method:
as §1
(§4) The cells were harvested respectively during the logarithmic growth period and counted with hemocytometer. The cell viability was over 98% by trypan blue exclusion. 90 μl of cell suspensions were added in to 96-well plates, the final cell density was reached to 3000 cells/well. Plates were incubated for 96 hours at 37° C., and 5% CO2.
as §2, §3

The subject of a further experiment is MCF-7. The experiment can be described thus: In vitro cell assay (Cell Titer Glo), MCF-7. Particulars: Table 3; payloads and related ADCs; 6 days exposure; does not over-express Her2. The procedure: as §1, §4, §2, §3

In the case of “H-vcMMAE: ADC of Herceptin (Trastuzumab) with vc linker and MMAE [reference compound]”, the results for the IC50 in the experiment on HCC1954, with SK-BR-3 and in the experiment on MCF-7 were 0.094 nM, 0.017 nM and 43.7 nM, respectively.
